The list shows a part of the results. Inconclusive results are not listed. Active and inactive are the calls of the source. Cut-off read from the data, not from the text of the source: active = potentiation above about 80%; inconclusive = between about 30% and that limit; inactive = weaker than that.

By UniProt entry, the sequences of proteins in these tests, tags left out.
UniProt Q8NER1, whole entry: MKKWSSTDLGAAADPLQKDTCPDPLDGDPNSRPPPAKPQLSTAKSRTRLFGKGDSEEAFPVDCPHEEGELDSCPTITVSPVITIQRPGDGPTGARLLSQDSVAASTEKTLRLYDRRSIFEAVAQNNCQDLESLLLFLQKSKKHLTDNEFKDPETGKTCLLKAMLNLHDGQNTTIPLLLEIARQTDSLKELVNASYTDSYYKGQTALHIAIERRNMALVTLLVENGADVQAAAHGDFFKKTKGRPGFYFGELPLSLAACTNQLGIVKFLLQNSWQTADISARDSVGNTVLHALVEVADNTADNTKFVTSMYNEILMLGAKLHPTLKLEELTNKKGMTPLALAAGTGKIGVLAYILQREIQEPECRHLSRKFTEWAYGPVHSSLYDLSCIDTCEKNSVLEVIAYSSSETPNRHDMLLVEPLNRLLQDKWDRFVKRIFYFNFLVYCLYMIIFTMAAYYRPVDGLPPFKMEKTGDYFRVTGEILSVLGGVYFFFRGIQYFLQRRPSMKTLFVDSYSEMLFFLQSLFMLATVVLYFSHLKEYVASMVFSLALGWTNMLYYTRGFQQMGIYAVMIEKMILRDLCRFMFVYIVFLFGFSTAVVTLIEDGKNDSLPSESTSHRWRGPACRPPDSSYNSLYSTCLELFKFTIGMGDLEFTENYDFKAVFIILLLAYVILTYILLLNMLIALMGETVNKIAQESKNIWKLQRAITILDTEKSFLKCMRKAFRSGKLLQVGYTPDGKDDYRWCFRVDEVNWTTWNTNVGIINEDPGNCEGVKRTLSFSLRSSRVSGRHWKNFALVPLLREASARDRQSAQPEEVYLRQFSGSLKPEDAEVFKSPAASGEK

This assay concerns the target Transient receptor potential cation channel subfamily V member 1 (Homo sapiens) (UniProt Q8NER1). The assay is described as follows: HTS Assay for Compounds that Act as Potentiators of the Vanilloid Receptor 1. Note: 0% is about no effect. Conditions: TRPV1-expressing cells, Fluo-8 calcium influx, capsaicin EC20 potentiation; at 8.33 µM; active compounds read high. From the text: The transient receptor potential ion channel, family V, number 1, (TRPV1) is one of the most important molecular transducers of painful stimuli and a potential target for analgesic drug development. Although recent clinical trials with orthosteric antagonists have not produced a successful drug because of a hyperthermia side effect and their tendency to block thermal noxious pain, this ion channel is undeniably well placed in the pain pathway, and the idea of blocking pain signals before they enter the CNS is an excellent concept and of proven efficacy when TRPV1 agonists are used. We propose a new approach involving allosteric modulation to impose an activity-dependent constraint within the context of inflammation and tissue damage that would alter the responsiveness of the channel in a way that an orthosteric vanilloid antagonist cannot achieve. We believe that the allosteric modulator approach has not been explored for this target. The main goal of this proposal is to identify additional, new, potent allosteric modulators of TRPV1 that can be used to investigate TRPV1 function. Our recent report provides evidence of proof of concept, but the compounds are just at the edge of utility in terms of potency. […] The question of whether they can be used as analgesic agents is complex, but if suitable compounds are identified then testing for analgesic properties will be conducted. NIH Chemical Genomics Center [NCGC] NIH Molecular Libraries Probe Centers Network [MLPCN] MLPCN Grant: MH089480-1A1 Assay Submitter (PI): Michael Iadarola, National Institute of Dental and Cranofacial Research
Upon TRPV1 activation in TRPV1 cells, the channel opens and extracellular cations flow through the channel into the cytosol. A calcium binding dye (Fluo-8) becomes fluorescent when bound to calcium. This dye is pre-loaded into cells and is used as a marker for calcium influx. The amount of accumulated calcium is precisely quantified using the FDSS kinetic reader and the calcium dye. For the HTS assay, freshly prepared cells are plated at a density of 2000/well in 3 ul medium in 1536-well plates and cultured overnight at 35.5C. Cells will be loaded with 1 ul of the homogeneous calcium dye (ABD Bioquest) at room temperature for 40 to 90 minutes. Plates will be loaded into the FDSS kinetic reader and a 1 sec / cycle for 10 second baseline signal will be measured. Compound library will then be added with a pintool at 23 nl and measured kinetically for 3 minutes. This portion of the read is considered the agonist portion of the screen. Following the 3 minutes of incubation, an on board pipettor will deliver 1 ul of capsaicin for a final concentration equal to the EC20. Signal will be measured kinetically for an additional 2 minutes. This portion of the read is considered the allosteric enhancer portion of the screen. The FDSS reader has a standard filter set capable of measuring calcium bound Fluo-8 (ex=480 and em=520 nm).
With `CCCCOc1ccc(C(=O)NCC2(N3CCCCC3)CCCCC2)cc1OC`, the potentiation was inactive: -7.13%.
As to `CCOC(=O)Nc1ccc([As](=O)(O)O)c(O)c1`, the potentiation is inactive: -2.45%.
The value for `O=[N+]([O-])c1ccc(Nc2ccc(Oc3ccc([N+](=O)[O-])cc3[N+](=O)[O-])cc2)c([N+](=O)[O-])c1` was inactive: -5.98%.
For `CP(=O)(Nc1ccccc1Br)Oc1ccccc1` (stereo not given) the value was inactive: 11%.
Take `COc1ccccc1OP(C)(=O)Nc1ccccc1` (stereo not given): the potentiation was inactive: 1.47%.
The value for `O=P(Nc1ccccn1)(c1cccc2ccccc12)c1cccc2ccccc12` was inactive: -2%.
For `Cc1cc(SC(NC=O)C(Cl)(Cl)Cl)ncn1` (stereo not given) the value was inactive: 1.95%.
In the case of `CCOC(=O)Nc1cccc([As](=O)(O)O)c1`, the potentiation is inactive: -10.1%.
On to `CP(=S)(Nn1cnnc1)Oc1ccccc1` (stereo not given), for which the potentiation was inactive: -5.13%.
As to `O=C(Nc1cc([As](=O)(O)O)ccc1O)c1ccccc1`, the potentiation is inactive: 21.4%.
The value for `CCOC(=O)c1ccc(NP(C)(=O)Oc2ccc(Cl)cc2)cc1` (stereo not given) was inactive: -5.22%; that for `CP(=O)(OC12CC3CC(CC(C3)C1)C2)OC12CC3CC(CC(C3)C1)C2` was inactive: -10.2%; that for `O=[N+]([O-])c1cccc(NC2=NCC(CBr)S2)c1` (stereo not given) was inactive: 12.5%.
Turning to `O=C(O)CNc1ccc([As](=O)(O)O)cc1`, the potentiation is inactive: 23%.
Consider `CC(C)(C)C(=O)NC(Sc1ccncn1)C(Cl)(Cl)Cl` (stereo not given), for which the potentiation was inactive: -7.89%.
As for `O=[N+]([O-])c1ncn(CCn2ncnc2[N+](=O)[O-])n1`, the potentiation was inactive: 2.37%.
Take `O=C(OCCCN1CCCC1)C(O)(c1ccccc1)C1CCCCC1` (stereo not given): the potentiation was inactive: -6.46%.
Consider `O=[N+]([O-])c1cccc2n[nH]nc12`, for which the potentiation is inactive: 0.0815%.
As to `CC(=O)N1C2C3N(C(C)=O)C1C1N(C(C)=O)C(C(N1C(C)=O)N3C(C)=O)N2C(C)=O`, the potentiation was inactive: 0.747%.
For `COc1ccccc1OP(C)(=O)Nc1c(C)n(C)n(-c2ccccc2)c1=O` (stereo not given) the value was inactive: 13.1%; for `CCc1ccc(OP(C)(=O)Nc2cccnc2)cc1` (stereo not given), inactive: -14.4%; for `CCc1nc2c(n1)c1c(non1O)c1c2no[n+]1[O-]`, inactive: 3.99%.
The value for `O=[N+]([O-])c1cc([N+](=O)[O-])c(CCNc2ccccc2)c([N+](=O)[O-])c1` was inactive: 4.65%.
Take `CP(=O)(Oc1ccccc1)N1CCOC1=O` (stereo not given): the potentiation was inactive: 1.75%.
On to `Cc1ccc(NP(=O)(Oc2ccccc2)Oc2ccccc2)nc1`, for which the potentiation was inactive: -2.69%.
Take `COc1ccc(OP(C)(=O)Nc2ccc(Br)cc2)cc1` (stereo not given): the potentiation was inactive: 1.64%.
Regarding `COc1ccc(C2=NCC(CBr)S2)cc1` (stereo not given), the potentiation was inactive: 29.4%.
The value for `CCN(CC)CC(O)COC(=O)C(O)(c1ccccc1)C1CCCCC1` (stereo not given) was inactive: -0.622%; that for `CN(C)C(=O)OCCc1n(C)cc[n+]1C` was inactive: 11.3%.
For `CN(C)C(=O)c1c([N+](=O)[O-])cc([N+](=O)[O-])cc1[N+](=O)[O-]` the value was inactive: -7.29%.
Turning to `CC(C)=N/N=C(\N)N[N+](=O)[O-]`, the potentiation was inactive: 6.04%.
For `CC1CCN(C(=O)Oc2c(Cl)cc(Cl)c3cccnc23)CC1` the value was inactive: 24.4%; for `C[N+]1=C2C=CC=CC=C2SC12C([N+](=O)[O-])=CC([N+](=O)[O-])=C[C-]2[N+](=O)[O-]` (stereo not given), inactive: -8.81%; for `CC(C)(C)c1ccc(OP(C)(=O)O)cc1`, inactive: 1.41%.
Regarding `Nc1ccc([As](=O)(O)c2ccc(N)cc2)cc1`, the potentiation is inactive: 10.8%.
`CP(=O)(Nc1ccc(Cl)cc1)Oc1ccc(F)cc1` (stereo not given): the potentiation is inactive: -1.26%.
`CCN(/C(=N/P(=O)(N1CCOCC1)N1CCOCC1)N1CCOCC1)c1ccc(OC)cc1`: the potentiation was inactive: 3.04%.
For `Cc1ccc(OP(=O)(Nc2nccs2)Oc2ccc(C)cc2)cc1`, the potentiation is inactive: 4.22%.
For `COc1ccccc1OP(=O)(Nc1ccc(C)cn1)Oc1ccccc1OC`, the potentiation is inactive: -14.2%.
As for `COc1ccc(OP(C)(=O)Nc2ccccn2)cc1` (stereo not given), the potentiation is inactive: 17.7%.
As for `CN1CCCC(OC(=O)C(c2ccccc2)c2ccccc2)C1` (stereo not given), the potentiation was inactive: 0.542%.
The value for `Clc1ccc(Cl)c(NC2=NCC(CBr)S2)c1` (stereo not given) was inactive: -3.48%; that for `CN(C)CCOC(=O)C(O)(c1ccccc1)C1CCCC1` (stereo not given) was inactive: 0.977%.
Turning to `NC(=O)c1cc([N+](=O)[O-])cc([N+](=O)[O-])c1N`, the potentiation was inactive: 3.37%.
Consider `Cc1ccc(N/C(=N/P(=O)(N2CCOCC2)N2CCOCC2)N2CCOCC2)cc1`, for which the potentiation is inactive: -2.34%.
As to `CN(C(=O)Cc1ccc(Cl)c(Cl)c1)[C@H]1CCCC[C@H]1N1CCCC1`, the potentiation was inactive: -4.19%.
For the molecule `COc1ccccc1OP(C)(=O)Nc1ccc(Br)cc1` (stereo not given), the potentiation was inactive: 12.1%.
As to `COc1ccccc1OP(C)(=O)Nc1ccc(C)cc1C` (stereo not given), the potentiation is inactive: -4.84%.
For the molecule `CP(=O)(Nc1ccccn1)Oc1ccccc1` (stereo not given), the potentiation was inactive: 1.82%.
As for `Cc1c(NP(C)(=O)Oc2ccc(C(C)C)cc2)c(=O)n(-c2ccccc2)n1C` (stereo not given), the potentiation was inactive: 1.14%.

Source of the values: PubChem BioAssay AID540277 (National Center for Advancing Translational Sciences (NCATS), 2011).
